scFv variants of Ab-14 (heavy chain) against a SARS-CoV-2 spike peptide

Values reported by Engelhart et al. 2022, doi:10.1038/s41597-022-01779-4 (FLAb copy).

Binding partner: SARS-CoV-2 spike HR2 peptide, sequence PDVDLGDISGINAS.

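In library AAYL49, one, two or three CDR residues were substituted; doubles and triples were drawn at random. The assay is AlphaSeq: two haploid yeast populations carry antibody and antigen on their surface. After mating in shaken culture at 30 °C for 16 h, diploids were selected and their barcode pairs sequenced. Read counts were normalised to the haploid input and turned into Kd by a linear fit to BCL2-family pairs of known affinity, for each replicate. Mating was done three times.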

The variants keep the light chain, the linker and the frameworks of Ab-14 (scFv order VH, three GGGGS repeats, VL).
VH: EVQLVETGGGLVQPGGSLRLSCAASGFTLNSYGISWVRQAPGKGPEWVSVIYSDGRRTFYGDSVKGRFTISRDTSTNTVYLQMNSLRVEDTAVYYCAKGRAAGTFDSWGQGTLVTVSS
VL: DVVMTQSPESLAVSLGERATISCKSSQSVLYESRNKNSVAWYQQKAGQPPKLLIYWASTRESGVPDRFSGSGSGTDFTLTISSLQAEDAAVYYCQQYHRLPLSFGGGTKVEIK

Each variant's VH is given in full. The read-out is the apparent dissociation constant on a log10 scale (nM): the lower, the stronger. Averages over replicates are reported, and they cover detected replicates only. "n.d." marks a missing value. The strain was present, yet no cells mated with the target were sequenced in that replicate, which points to weak or no binding.

| # | VH | replicates, log10 nM | mean log10 Kd (nM) | empty controls |
|---|---|---|---|---|
| 1 | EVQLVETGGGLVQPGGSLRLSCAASGFTLNSYGISWVRQAPGKGPEWVSVIYPDGRRTFTGDSVKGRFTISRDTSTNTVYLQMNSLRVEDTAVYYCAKGRAAGQFDSWGQGTLVTVSS | n.d. / 3.82 / n.d. | 3.82 | 0/9 |
| 2 | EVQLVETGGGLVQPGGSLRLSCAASGFTLNSYGIAWVRQAPGKGPEWVSVIYSDGRRRFYHDSVKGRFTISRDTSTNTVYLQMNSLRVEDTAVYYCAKGRAAGTFDSWGQGTLVTVSS | n.d. / 5.30 / 4.41 | 4.85 | 3/9 (4.18) |
| 3 | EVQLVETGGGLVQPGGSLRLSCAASGFTLNSYGKSWVRQAPGKGPEWVSVIYSDGRRTFYGDSVKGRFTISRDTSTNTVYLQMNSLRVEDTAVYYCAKGRSAGTFASWGQGTLVTVSS | n.d. / n.d. / n.d. | n.d. | 0/9 |
| 4 | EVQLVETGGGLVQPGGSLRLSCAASGFTLNSYGISWVRQAPGKGPEWVSVIYSDGRTLFYGDSVKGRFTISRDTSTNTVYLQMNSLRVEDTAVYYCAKGRAAGTHDSWGQGTLVTVSS | n.d. / n.d. / n.d. | n.d. | 0/9 |
| 5 | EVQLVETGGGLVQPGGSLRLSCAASGFTLNSYGISWVRQAPGKGPEWVSVIYSDGRRTWYGDSYKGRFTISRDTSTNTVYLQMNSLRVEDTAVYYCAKGRAAGTVDSWGQGTLVTVSS | n.d. / n.d. / n.d. | n.d. | 0/9 |
| 6 | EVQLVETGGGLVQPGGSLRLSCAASGFTLNSYGISWVRQAPGKGPEWVSVIYSDGRNTFYGDSAKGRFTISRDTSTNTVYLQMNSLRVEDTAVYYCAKGSAAGTFDSWGQGTLVTVSS | n.d. / n.d. / n.d. | n.d. | 0/9 |
| 7 | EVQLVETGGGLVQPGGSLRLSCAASGLTLNSYGIPWVRQAPGKGPEWVSVIYSDGRRTFYGDSVKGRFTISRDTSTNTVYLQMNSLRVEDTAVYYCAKGRNAGTFDSWGQGTLVTVSS | n.d. / n.d. / n.d. | n.d. | 0/9 |
| 8 | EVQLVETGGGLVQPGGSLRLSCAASGFTLNSYKISWVRQAPGKGPEWVSVIYSDGRMTFYGDSVKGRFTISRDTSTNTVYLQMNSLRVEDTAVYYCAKGRAAGTDDSWGQGTLVTVSS | n.d. / 4.21 / n.d. | 4.21 | 1/9 (5.23) |
| 9 | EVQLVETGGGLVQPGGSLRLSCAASGFTKNSYGISWVRQAPGKGPEWVSVIYSDGRRTFPGDSVKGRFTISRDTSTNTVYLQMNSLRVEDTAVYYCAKGTAAGTFDSWGQGTLVTVSS | n.d. / n.d. / n.d. | n.d. | 0/9 |
| 10 | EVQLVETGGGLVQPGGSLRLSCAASGFTLNSYGQSWVRQAPGKGPEWVSVIYSDGRRTFYGDWVKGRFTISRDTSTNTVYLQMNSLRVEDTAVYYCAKGCAAGTFDSWGQGTLVTVSS | 4.76 / 3.38 / 4.92 | 4.35 | 3/9 (3.24) |
| 11 | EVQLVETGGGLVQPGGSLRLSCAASGFTLNSYVISWVRQAPGKGPEWVSVIYSDGRITFYGDSVKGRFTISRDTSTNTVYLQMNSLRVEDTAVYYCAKGRAAGTFDSWGQGTLVTVSS | n.d. / 2.29 / n.d. | 2.29 | 2/9 (4.12) |
| 12 | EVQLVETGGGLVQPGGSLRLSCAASGFTLNSYGISWVRQAPGKGPEWVSVDYSDKRRTFYGDSVKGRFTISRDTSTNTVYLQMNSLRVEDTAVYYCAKGRYAGTFDSWGQGTLVTVSS | n.d. / n.d. / n.d. | n.d. | 1/9 (3.38) |
| 13 | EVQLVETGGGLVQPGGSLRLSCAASGFTWNSYGLSWVRQAPGKGPEWVSVIYSDGRRTFYGDNVKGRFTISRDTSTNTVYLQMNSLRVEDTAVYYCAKGRAAGTFDSWGQGTLVTVSS | n.d. / 3.83 / n.d. | 3.83 | 3/9 (3.67) |
| 14 | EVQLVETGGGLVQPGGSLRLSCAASGFTLNYYGISWVRQAPGKGPEWVSVIYSDKRRTFYDDSVKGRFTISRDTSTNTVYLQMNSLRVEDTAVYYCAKGRAAGTFDSWGQGTLVTVSS | n.d. / 3.93 / n.d. | 3.93 | 0/9 |
| 15 | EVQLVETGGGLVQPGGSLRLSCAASGFTLISYAISWVRQAPGKGPEWVSVIYSDGRRTFYGDSVKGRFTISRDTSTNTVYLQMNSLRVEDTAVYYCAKGCAAGTFDSWGQGTLVTVSS | n.d. / n.d. / n.d. | n.d. | 0/9 |
| 16 | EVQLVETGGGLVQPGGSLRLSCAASGFTLNSYGISWVRQAPGKGPEWVSVIYSDGRRTFPGDSVKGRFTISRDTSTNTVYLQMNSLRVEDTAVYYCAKGRAMGTFDSWGQGTLVTVSS | n.d. / n.d. / n.d. | n.d. | 1/9 (3.68) |
| 17 | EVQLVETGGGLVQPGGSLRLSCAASHFTLNSYGISWVRQAPGKGPEWVSVIYSDGRRTFYGDSVPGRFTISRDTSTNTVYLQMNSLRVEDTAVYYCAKGRAAGTGDSWGQGTLVTVSS | n.d. / n.d. / n.d. | n.d. | 1/9 (4.18) |
| 18 | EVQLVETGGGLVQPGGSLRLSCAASGFTHNSYGISWVRQAPGKGPEWVSVIYSDGRRRQYGDSVKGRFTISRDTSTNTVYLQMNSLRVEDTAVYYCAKGRAAGTFDSWGQGTLVTVSS | n.d. / 3.87 / n.d. | 3.87 | 1/9 (4.30) |
| 19 | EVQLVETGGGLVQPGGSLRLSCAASGFTLNSYGISWVRQAPGKGPEWVSVIYSDGRRVFYGDSVKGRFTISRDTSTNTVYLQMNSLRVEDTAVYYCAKGRAAGTFDSWGQGTLVTVSS | n.d. / n.d. / n.d. | n.d. | 0/9 |
| 20 | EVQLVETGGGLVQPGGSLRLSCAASGFTLNSYEISWVRQAPGKGPEWVSNIYSDGRRTFYGDTVKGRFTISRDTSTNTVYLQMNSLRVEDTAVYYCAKGRAAGTFDSWGQGTLVTVSS | n.d. / 4.29 / n.d. | 4.29 | 2/9 (4.23) |
| 21 | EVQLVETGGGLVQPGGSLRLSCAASGFTLNSYGISWVRQAPGKGPEWVSVTWSDGRRTFYGDSVKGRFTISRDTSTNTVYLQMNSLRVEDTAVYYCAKGRAAGTFDLWGQGTLVTVSS | 4.81 / n.d. / n.d. | 4.81 | 3/9 (3.95) |
| 22 | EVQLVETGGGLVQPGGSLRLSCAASGFTLNSYGIDWVRQAPGKGPEWVSVIYSDGRNTFYGDSVKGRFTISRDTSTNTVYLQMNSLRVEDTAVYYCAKGRATGTFDSWGQGTLVTVSS | 3.56 / n.d. / n.d. | 3.56 | 4/9 (3.66) |

Background: pairings of library AAYL49 with three empty control strains gave a value in 15% of cases (median 4.06, 5th percentile 2.83). Values in that range, when seen in few replicates, are hard to tell from nonspecific mating. For each scFv, signals with the empty controls are counted beside the result, with their mean in brackets. Parent in this assay: reference entry 0.65, copy in this library 4.11 (one replicate of three).